The structures appear in SMILES notation. pIC50: −log10 of the molar value.

Protein sequences, listed by entry. Tags and fused reporters are not part of them.
UniProt Q9NUW8, whole entry: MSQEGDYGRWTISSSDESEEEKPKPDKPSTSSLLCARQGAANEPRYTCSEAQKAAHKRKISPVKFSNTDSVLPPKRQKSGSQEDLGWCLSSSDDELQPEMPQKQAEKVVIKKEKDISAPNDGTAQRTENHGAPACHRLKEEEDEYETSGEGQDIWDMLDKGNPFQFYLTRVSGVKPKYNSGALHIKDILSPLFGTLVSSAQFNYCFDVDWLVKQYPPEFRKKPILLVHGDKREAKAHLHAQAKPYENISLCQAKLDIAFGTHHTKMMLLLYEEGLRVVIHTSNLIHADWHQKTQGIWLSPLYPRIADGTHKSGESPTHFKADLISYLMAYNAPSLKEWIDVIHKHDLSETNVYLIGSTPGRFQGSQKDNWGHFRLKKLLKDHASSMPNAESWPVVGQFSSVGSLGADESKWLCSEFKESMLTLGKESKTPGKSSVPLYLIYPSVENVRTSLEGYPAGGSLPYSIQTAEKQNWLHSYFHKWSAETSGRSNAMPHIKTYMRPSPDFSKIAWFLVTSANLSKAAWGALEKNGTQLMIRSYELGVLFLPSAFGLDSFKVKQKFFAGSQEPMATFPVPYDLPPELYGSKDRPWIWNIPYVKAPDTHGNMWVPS

The first experiment has as its system SF-539. Kind of experiment: Growth inhibition of human SF539 cells. It is filed as functional.
Usually GI50 stands for the concentration giving 50% growth inhibition. The low end stands for more potent growth inhibition, the high end for less potent growth inhibition. Molecule `O=C1c2ccccc2-c2c1c1ccc([N+](=O)[O-])cc1c(=O)n2CCCO` gave a GI50 of 0.39 µM.

For the next experiment, the target named is Tyrosyl-DNA phosphodiesterase 1 (Homo sapiens, UniProt Q9NUW8).
Broadly, the pIC50 is the negative decadic logarithm of the IC50, by convention in mol/L. Higher therefore signals a small IC50. As for `NCCCn1c2c(c3ccc(N)cc3c1=O)C(=O)c1ccccc1-2`, the negative-log IC50 (pIC50) is 4.92.

Turning to `CC(=O)Nc1ccc2c3c(n(CCCN)c(=O)c2c1)-c1ccccc1C3=O`, the negative-log IC50 (pIC50) is 4.74.

Consider `CC(=O)Nc1ccc2c3c(n(CCCN)c(=O)c2c1)-c1ccccc1C3O` (configuration not stated), for which the pIC50 was less than 3.95.

Consider `CC(=O)Nc1ccc2c3c(n(CCCO)c(=O)c2c1)-c1ccccc1C3=O`, for which the pIC50 is less than 3.95.

In the case of `CC(=O)Nc1ccc2c3c(n(CCCN=[N+]=[N-])c(=O)c2c1)-c1ccccc1C3=O`, the pIC50 was less than 3.95.

`O=C1c2ccccc2-c2c1c1ccc([N+](=O)[O-])cc1c(=O)n2CCCO`: the pIC50 is less than 3.95.

The molecule `COc1cccc2c1-c1c(c3ccc([N+](=O)[O-])cc3c(=O)n1CCCN)C2=O` had a pIC50 of 5.24.

In turn, `COc1ccc2c(c1)C(=O)c1c-2n(CCCN)c(=O)c2cc(I)ccc12` had a pIC50 of 5.28.

For `COc1ccc2c(c1)C(=O)c1c-2n(CCCN)c(=O)c2cc([N+](=O)[O-])ccc12`, the pIC50 is 4.96.

A further experiment concerns UACC-62. Description: Growth inhibition of human UACC62 cells. It is filed as functional.
`COc1ccc2c(c1)-c1c(c3ccc([N+](=O)[O-])cc3c(=O)n1CCCN)C2=O` registered a GI50 of 0.14 µM.

Another experiment has as its system HOP-62. Description: Growth inhibition of human HOP62 cells. Type of experiment: functional.
`COc1ccc2c(c1)-c1c(c3ccc([N+](=O)[O-])cc3c(=O)n1CCCN)C2=O`: the GI50 was determined as 0.14 µM.

The values are drawn from ChEMBL document CHEMBL2311405, “Synthesis and biological evaluation of indenoisoquinolines that inhibit both tyrosyl-DNA phosphodiesterase I (Tdp1) and topoisomerase I (Top1)” (J Med Chem, 2013).
